Measured values published in article PMC4885489, “Prediction of Drug-Drug Interactions Arising from CYP3A induction Using a Physiologically Based Dynamic Model” (Drug Metabolism and Disposition, 2016).

How the values were obtained:
rCYP3A4 = assay: Recombinant enzyme metabolism kinetics, rCYP3A4; settings: Calculated from CLiv using the Retrograde model and fmCYP3A4 = 0.93
CYP3A4 = settings: cited from earlier work

CCC(=O)N(c1ccccc1)C1(COC)CCN(CCn2nnn(CC)c2=O)CC1
rCYP3A4 CLint (rCYP3A4): 0.49 µL/min/pmol | fm (fmCYP3A4), derived from in vitro data (CYP3A4; verified using a clinical ketoconazole study, ref Labroo et al): 0.93 | fm (fmCYP3A4), clinical data (CYP3A4; wide range from clinical data, inhibitor or trial design not optimal): 0.72-0.93

This is a selection: effects in other tests are not listed, and their absence says nothing.
